Results as given in publication PMC12142581.

Amino acid sequences for entries named in this document (tags omitted). A change or cut given only in a name is not applied to a line headed by its entry. Residues count along the entry.
UniProt P25100, whole entry, looked up: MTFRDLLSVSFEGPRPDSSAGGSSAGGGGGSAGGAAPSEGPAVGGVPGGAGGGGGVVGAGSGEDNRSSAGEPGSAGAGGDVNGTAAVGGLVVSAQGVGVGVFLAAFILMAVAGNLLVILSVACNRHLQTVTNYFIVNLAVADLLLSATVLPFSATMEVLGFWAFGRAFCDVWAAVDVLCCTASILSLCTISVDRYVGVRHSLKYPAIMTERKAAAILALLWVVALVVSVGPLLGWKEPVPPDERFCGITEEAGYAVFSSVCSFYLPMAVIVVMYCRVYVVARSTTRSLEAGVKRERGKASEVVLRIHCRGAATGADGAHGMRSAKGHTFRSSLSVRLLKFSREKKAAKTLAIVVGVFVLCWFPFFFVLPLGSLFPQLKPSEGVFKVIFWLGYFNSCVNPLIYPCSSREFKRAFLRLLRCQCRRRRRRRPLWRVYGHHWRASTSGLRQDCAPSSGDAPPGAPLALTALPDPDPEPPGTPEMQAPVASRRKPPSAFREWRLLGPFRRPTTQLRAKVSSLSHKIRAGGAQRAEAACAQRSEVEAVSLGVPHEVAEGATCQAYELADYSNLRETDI
UniProt P25101, 21-427 limits assumed: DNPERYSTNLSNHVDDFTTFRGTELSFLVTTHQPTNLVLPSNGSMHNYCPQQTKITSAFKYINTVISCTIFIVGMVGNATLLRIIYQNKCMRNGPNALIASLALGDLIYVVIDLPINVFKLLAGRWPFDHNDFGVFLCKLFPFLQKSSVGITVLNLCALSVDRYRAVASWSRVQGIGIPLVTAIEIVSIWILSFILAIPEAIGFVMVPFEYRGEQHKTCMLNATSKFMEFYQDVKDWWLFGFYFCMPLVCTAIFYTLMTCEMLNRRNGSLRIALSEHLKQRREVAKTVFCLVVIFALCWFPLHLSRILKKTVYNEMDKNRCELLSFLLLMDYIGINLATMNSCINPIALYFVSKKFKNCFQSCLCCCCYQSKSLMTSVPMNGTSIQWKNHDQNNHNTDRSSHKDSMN
UniProt P11229: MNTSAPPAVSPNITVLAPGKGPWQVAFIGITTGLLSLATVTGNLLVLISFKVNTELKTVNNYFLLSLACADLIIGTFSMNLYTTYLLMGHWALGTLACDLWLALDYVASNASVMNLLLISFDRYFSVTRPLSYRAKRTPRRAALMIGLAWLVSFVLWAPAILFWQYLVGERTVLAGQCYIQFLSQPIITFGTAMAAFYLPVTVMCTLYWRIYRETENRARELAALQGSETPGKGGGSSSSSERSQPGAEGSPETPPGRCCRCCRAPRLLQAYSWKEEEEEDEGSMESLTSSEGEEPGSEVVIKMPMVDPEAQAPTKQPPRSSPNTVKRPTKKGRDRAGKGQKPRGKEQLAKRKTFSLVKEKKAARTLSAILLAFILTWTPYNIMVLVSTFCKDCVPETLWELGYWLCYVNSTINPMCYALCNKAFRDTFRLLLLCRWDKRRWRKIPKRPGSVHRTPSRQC
UniProt P20309, whole entry, looked up: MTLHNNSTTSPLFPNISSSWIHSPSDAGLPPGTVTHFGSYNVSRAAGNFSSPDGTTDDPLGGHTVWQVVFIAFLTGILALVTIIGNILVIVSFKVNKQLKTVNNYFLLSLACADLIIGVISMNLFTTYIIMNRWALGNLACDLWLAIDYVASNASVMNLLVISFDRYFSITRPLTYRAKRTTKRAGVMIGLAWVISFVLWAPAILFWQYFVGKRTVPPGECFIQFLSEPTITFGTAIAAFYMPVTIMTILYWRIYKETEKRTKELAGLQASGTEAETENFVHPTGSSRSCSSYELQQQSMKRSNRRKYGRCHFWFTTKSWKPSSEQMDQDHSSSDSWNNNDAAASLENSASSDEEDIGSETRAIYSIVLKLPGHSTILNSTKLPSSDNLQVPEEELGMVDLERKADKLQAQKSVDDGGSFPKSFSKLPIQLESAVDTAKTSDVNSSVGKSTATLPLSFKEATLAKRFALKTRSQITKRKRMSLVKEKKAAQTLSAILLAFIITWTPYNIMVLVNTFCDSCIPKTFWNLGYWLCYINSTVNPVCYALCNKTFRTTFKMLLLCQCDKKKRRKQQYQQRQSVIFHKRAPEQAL
UniProt P08908, whole entry, looked up: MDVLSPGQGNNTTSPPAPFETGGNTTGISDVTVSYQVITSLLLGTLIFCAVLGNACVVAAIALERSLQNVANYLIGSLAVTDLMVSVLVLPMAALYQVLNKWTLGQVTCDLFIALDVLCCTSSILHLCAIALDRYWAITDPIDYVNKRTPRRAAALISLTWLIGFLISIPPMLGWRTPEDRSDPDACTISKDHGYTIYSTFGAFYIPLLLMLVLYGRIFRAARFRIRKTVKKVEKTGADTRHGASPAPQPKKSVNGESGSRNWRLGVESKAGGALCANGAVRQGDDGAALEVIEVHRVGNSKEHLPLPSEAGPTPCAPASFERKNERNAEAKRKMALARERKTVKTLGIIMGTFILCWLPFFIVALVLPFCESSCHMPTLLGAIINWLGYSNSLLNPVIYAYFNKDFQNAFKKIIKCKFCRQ
UniProt P46098, 24-478 limits assumed: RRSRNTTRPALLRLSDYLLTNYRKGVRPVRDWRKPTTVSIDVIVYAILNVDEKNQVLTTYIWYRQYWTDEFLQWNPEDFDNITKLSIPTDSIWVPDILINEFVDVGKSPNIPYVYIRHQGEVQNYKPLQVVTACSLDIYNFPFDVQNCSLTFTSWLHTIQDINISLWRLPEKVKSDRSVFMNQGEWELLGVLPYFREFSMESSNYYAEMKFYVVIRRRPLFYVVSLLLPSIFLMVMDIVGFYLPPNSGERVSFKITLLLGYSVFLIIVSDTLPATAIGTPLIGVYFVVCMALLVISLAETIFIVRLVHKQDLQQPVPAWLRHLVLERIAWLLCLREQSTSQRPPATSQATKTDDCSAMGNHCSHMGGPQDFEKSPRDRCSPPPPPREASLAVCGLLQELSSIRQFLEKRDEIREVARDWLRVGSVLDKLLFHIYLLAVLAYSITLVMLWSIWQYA
UniProt Q01959, whole entry, looked up: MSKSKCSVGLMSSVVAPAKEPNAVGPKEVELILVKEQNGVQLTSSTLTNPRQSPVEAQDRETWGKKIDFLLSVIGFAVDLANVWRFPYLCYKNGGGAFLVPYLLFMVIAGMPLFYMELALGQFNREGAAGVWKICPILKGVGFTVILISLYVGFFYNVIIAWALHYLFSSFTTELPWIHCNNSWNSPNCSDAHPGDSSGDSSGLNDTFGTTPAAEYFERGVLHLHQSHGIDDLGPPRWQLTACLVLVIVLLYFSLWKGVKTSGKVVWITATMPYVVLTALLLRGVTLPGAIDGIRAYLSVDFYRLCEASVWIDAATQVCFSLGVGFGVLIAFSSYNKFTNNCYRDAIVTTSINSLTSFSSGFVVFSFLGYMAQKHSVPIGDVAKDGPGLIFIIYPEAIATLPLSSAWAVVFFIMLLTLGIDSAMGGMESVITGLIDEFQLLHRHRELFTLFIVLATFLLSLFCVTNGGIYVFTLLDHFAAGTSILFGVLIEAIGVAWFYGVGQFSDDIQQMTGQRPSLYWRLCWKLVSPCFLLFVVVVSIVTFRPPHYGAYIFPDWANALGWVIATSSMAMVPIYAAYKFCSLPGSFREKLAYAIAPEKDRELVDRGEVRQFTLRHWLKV
UniProt G7P0W8, 1-466: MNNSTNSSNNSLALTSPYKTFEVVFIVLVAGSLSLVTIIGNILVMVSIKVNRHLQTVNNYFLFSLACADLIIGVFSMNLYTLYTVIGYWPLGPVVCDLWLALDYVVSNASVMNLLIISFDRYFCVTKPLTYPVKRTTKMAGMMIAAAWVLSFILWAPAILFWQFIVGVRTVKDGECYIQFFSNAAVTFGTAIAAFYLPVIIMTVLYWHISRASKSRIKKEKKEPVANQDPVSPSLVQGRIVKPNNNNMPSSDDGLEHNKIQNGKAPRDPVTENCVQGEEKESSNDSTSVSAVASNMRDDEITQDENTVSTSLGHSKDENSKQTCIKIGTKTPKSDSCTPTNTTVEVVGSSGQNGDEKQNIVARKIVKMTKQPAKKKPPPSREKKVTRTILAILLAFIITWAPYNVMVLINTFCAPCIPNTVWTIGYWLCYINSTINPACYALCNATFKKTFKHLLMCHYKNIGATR
UniProt G7PQB4, 1-479: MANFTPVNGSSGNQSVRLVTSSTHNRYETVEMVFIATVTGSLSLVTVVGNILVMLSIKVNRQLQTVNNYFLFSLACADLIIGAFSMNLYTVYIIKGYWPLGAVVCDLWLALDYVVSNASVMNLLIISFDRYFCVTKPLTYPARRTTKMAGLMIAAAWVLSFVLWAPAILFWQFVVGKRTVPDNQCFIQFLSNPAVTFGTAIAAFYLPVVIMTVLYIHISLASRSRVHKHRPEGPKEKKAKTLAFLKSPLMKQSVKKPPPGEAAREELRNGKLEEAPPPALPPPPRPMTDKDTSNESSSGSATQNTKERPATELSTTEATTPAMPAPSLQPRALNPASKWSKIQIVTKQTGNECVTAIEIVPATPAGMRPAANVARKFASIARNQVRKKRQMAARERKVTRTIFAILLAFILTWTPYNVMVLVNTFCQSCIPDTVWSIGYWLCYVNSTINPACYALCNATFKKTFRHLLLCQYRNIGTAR
UniProt F1SIA0, 1-479: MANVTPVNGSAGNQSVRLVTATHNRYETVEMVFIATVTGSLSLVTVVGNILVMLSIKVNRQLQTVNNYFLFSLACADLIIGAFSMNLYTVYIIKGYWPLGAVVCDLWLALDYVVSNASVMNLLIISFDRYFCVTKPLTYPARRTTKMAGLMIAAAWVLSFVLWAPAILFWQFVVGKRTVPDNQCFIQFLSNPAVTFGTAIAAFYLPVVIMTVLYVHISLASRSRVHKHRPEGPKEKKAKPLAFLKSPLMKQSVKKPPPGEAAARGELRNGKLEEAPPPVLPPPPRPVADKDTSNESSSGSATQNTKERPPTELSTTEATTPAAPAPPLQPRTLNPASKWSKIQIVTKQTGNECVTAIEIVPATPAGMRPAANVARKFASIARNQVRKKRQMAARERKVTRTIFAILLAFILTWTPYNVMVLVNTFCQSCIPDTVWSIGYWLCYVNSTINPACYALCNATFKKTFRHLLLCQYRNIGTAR
UniProt P10980, whole entry, looked up: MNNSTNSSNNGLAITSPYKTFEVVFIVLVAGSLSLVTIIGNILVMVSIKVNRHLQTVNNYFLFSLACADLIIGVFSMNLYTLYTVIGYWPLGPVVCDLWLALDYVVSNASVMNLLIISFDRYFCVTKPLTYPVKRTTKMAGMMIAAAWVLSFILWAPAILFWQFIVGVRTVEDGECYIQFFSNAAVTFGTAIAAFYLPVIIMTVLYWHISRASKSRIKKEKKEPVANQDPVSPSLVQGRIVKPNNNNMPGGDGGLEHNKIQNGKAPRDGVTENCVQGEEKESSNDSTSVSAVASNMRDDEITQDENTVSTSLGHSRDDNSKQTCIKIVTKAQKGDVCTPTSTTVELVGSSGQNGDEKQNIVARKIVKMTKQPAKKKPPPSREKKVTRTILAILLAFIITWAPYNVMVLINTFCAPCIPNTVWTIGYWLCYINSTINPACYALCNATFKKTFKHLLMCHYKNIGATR
UniProt P08483, whole entry, looked up: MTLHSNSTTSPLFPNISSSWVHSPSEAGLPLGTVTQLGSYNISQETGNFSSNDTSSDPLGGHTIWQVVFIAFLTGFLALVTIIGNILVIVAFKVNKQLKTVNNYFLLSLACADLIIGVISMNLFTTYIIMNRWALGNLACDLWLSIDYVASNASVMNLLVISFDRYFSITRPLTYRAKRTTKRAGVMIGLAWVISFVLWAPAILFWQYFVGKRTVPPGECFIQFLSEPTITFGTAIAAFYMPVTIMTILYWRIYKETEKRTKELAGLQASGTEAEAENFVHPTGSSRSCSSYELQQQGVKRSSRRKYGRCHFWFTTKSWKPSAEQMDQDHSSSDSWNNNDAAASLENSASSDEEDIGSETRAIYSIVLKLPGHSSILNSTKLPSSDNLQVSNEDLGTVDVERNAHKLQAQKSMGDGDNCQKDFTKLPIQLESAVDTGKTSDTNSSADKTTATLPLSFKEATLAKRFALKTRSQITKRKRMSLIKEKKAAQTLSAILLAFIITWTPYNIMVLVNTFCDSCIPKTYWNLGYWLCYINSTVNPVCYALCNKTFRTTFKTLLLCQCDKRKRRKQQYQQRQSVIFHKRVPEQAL
UniProt P08485, whole entry, looked up: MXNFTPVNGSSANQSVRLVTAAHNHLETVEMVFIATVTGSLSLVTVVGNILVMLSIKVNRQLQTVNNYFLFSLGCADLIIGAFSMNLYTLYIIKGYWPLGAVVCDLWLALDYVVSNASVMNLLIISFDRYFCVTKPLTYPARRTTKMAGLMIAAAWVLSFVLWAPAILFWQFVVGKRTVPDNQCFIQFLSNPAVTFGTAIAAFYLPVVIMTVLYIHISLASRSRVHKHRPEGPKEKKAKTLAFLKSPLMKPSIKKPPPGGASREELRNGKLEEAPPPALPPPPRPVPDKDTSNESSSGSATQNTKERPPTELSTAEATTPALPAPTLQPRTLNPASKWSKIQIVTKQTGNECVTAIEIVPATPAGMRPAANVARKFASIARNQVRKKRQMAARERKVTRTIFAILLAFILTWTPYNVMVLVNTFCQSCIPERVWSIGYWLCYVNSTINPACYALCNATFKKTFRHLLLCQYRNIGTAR

Key:
Adrenergic α1B = Adrenergic α1B (Rattus norvegicus, UniProt P15823); test: Lead Profiling Screen
Adrenergic α1D = Adrenergic α1D (Homo sapiens, UniProt P25100); test: Lead Profiling Screen
Adrenergic β1 = Adrenergic β1 (Homo sapiens, UniProt P08588); test: Lead Profiling Screen
Calcium Channel N-Type = Calcium Channel N-Type (Rattus norvegicus, UniProt Q02294); test: Lead Profiling Screen
Endothelin ETA = Endothelin ETA (Homo sapiens, UniProt P25101); test: Lead Profiling Screen
Glucocorticoid = Glucocorticoid (Homo sapiens, UniProt P04150); test: Lead Profiling Screen
Glutamate, NMDA, Glycine = Glutamate, NMDA, Glycine (Rattus norvegicus, UniProt P35439); test: Lead Profiling Screen
[1] = tested on: Glutamate, NMDA, Phencyclidine; test: Lead Profiling Screen
Melatonin MT1 = Melatonin MT1 (Homo sapiens, UniProt P48039); test: Lead Profiling Screen
Muscarinic M1 = Muscarinic M1 (Homo sapiens, UniProt P11229); test: Lead Profiling Screen
Muscarinic M3 = Muscarinic M3 (Homo sapiens, UniProt P20309); test: Lead Profiling Screen
Opiate κ (OP2, KOP) = Opiate κ (OP2, KOP) (Homo sapiens, UniProt P41145); test: Lead Profiling Screen
Potassium Channel hERG = Potassium Channel hERG (Homo sapiens, UniProt Q12809); test: Lead Profiling Screen
Rolipram = test: Lead Profiling Screen
[2] = molecular target: Serotonin (5-Hydroxytryptamine) 5-HT1A (Homo sapiens, UniProt P08908); test: Lead Profiling Screen
[3] = molecular target: Serotonin (5-Hydroxytryptamine) 5-HT3 (Homo sapiens, UniProt P46098); test: Lead Profiling Screen
Sodium Channel, Site 2 = test: Lead Profiling Screen
[4] = molecular target: Transporter, Dopamine (DAT) (Homo sapiens, UniProt Q01959); test: Lead Profiling Screen
[5] = Metabolic stability in intestinal microsomes; conditions: 0.5 µM, 60 min
cyno M2 = cyno M2 (Macaca fascicularis, UniProt G7P0W8); test: Calcium mobilization assay, CHO cells, EC20 acetylcholine
cyno M4 = cyno M4 (Macaca fascicularis, UniProt G7PQB4); test: as above
dog M2 = dog M2 (Canis lupus familiaris, UniProt A0A8I3N4M6); test: as above
dog M3 = test: as above
dog M4 = dog M4 (Canis lupus familiaris, UniProt A0A8I3Q4F7); test: as above
human M1 = human M1 (Homo sapiens, UniProt P11229); test: as above
human M2 = human M2 (Homo sapiens, UniProt P08172); test: as above
human M3 = human M3 (Homo sapiens, UniProt P20309); test: as above
human M5 = human M5 (Homo sapiens, UniProt P08912); test: as above
minipig M2 = minipig M2 (Sus scrofa, UniProt P06199); test: as above
minipig M4 = minipig M4 (Sus scrofa, UniProt F1SIA0); test: as above
rat M1 = rat M1 (Rattus norvegicus, UniProt P08482); test: as above
rat M2 = rat M2 (Rattus norvegicus, UniProt P10980); test: as above
rat M3 = rat M3 (Rattus norvegicus, UniProt P08483); test: as above
rat M4 = rat M4 (Rattus norvegicus, UniProt P08485); test: as above
rat M5 = rat M5 (Rattus norvegicus, UniProt P08911); test: as above

## Cc1nnc2sc3c(NCc4ccc(C(C)(C)O)cc4)ncnc3c2c1C
Adrenergic α1B
  % inh at 10 μM: 9%
Adrenergic α1D
  % inh at 10 μM: -4%
Adrenergic β1
  % inh at 10 μM: 12%
Calcium Channel N-Type
  % inh at 10 μM: 15%
Endothelin ETA
  % inh at 10 μM: 7%
Glucocorticoid
  % inh at 10 μM: 16%
Glutamate, NMDA, Glycine
  % inh at 10 μM: 2%
[1]
  % inh at 10 μM: -12%
Melatonin MT1
  % inh at 10 μM: 14%
Muscarinic M1
  % inh at 10 μM: 2%
Muscarinic M3
  % inh at 10 μM: 3%
Opiate κ (OP2, KOP)
  % inh at 10 μM: 2%
Potassium Channel hERG
  % inh at 10 μM: 2%
Rolipram
  % inh at 10 μM: 8%
[2]
  % inh at 10 μM: -8%
[3]
  % inh at 10 μM: -3%
Sodium Channel, Site 2
  % inh at 10 μM: 23%
[4]
  % inh at 10 μM: 11%
[5]; dog intestinal microsomes
  % compound remaining: > 90%
[5]; human intestinal microsomes
  % compound remaining: > 90%
[5]; monkey intestinal microsomes
  % compound remaining: > 90%
[5]; rat intestinal microsomes
  % compound remaining: > 90%
Cyno M2
  %AChMax: 34 % AChMax
  EC50: 3000 nM
  pEC50: 5.52
Cyno M4
  %AChMax: 89 % AChMax
  EC50: 63.5 nM
  pEC50: 7.20
Dog M2
  %AChMax: 38 % AChMax
  EC50: 2790 nM
  pEC50: 5.55
Dog M3
  activity: inactive
Dog M4
  %AChMax: 72 % AChMax
  EC50: 36.3 nM
  pEC50: 7.44
Human M1
  activity: inactive
Human M2
  %AChMax: 49 % AChMax
  EC50: 2820 nM
  pEC50: 5.5
Human M3
  activity: inactive
Human M5
  activity: inactive
Minipig M2
  %AChMax: 43 % AChMax
  EC50: 3000 nM
  pEC50: 5.52
Minipig M4
  %AChMax: 72 % AChMax
  EC50: 34.3 nM
  pEC50: 7.46
Rat M1
  activity: inactive
Rat M2
  %AChMax: 53 % AChMax
  EC50: 2410 nM
  pEC50: 5.62
Rat M3
  activity: inactive
Rat M4
  %AChMax: 81 % AChMax
Rat M5
  activity: inactive
